Legend:
[1] = relative permittivity at zero frequency (dimensionless); xn = mol fraction of the nth substance listed; conditions: 101 kPa, Liquid, Parallel plate capacitor
[2] = refractive index (Na D-line) (dimensionless); xn = mol fraction of the nth substance listed; conditions: 101 kPa, Liquid, Standard Abbe refractometry

CCCCOCCCC [dibutyl ether] + CCCCCCCC
Conditions	refractive index, 293.15 K	refractive index, 298.15 K	refractive index, 303.15 K	relative permittivity at zero frequency, 288.15 K	relative permittivity at zero frequency, 293.15 K	relative permittivity at zero frequency, 298.15 K	relative permittivity at zero frequency, 303.15 K	relative permittivity at zero frequency, 308.15 K
[1], x1 = 0.1014	–	–	–	2.074	2.065	2.056	2.047	2.038
[1], x1 = 0.2033	–	–	–	2.18	2.168	2.155	2.144	2.133
[1], x1 = 0.306	–	–	–	2.292	2.278	2.263	2.249	2.235
[1], x1 = 0.406	–	–	–	2.405	2.388	2.371	2.353	2.337
[1], x1 = 0.5063	–	–	–	2.524	2.504	2.484	2.464	2.444
[1], x1 = 0.6002	–	–	–	2.621	2.617	2.594	2.57	2.548
[1], x1 = 0.7036	–	–	–	2.775	2.747	2.719	2.692	2.667
[1], x1 = 0.8029	–	–	–	2.908	2.876	2.844	2.814	2.785
[1], x1 = 0.9003	–	–	–	3.043	3.007	2.972	2.938	2.905
[2], x1 = 0.1014	1.3979	1.3955	1.3929	–	–	–	–	–
[2], x1 = 0.2033	1.3979	1.3955	1.3929	–	–	–	–	–
[2], x1 = 0.306	1.398	1.3956	1.393	–	–	–	–	–
[2], x1 = 0.406	1.3981	1.3957	1.3931	–	–	–	–	–
[2], x1 = 0.5063	1.3982	1.3959	1.3932	–	–	–	–	–
[2], x1 = 0.6002	1.3983	1.396	1.3934	–	–	–	–	–
[2], x1 = 0.7036	1.3985	1.3962	1.3935	–	–	–	–	–
[2], x1 = 0.8029	1.3987	1.3964	1.3937	–	–	–	–	–
[2], x1 = 0.9003	1.3989	1.3966	1.3939	–	–	–	–	–

Reference: the NIST ThermoML archive (doi:10.1016/j.tca.2012.05.036)
